Yeast UUG start – alters start codon recognition fidelity in yeast; AID 602363; activity score, % at 18.7 µM; 350,000 tested, 0.13% active; S. cerevisiae UUG-firefly luciferase reporter, luminescence/redox ratio;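 active means replicate mean at a twofold rise or more, about +100% in these data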;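 further: firefly luciferase made from a UUG start codon reports start codon fidelity; reporter light over untreated wells divided by growth signal over untreated wells; some hits fall short of that in this replicate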
RAD52 inh – RAD52 DNA annealing inhibitors, primary screen, biochemical, FRET, single point, set 2; 360,000 tested, 0.46% active; inhibition, % at 18.7 µM; DNA repair protein RAD52 homolog (Homo sapiens), P43351; recombinant RAD52 DNA annealing, FRET fluorescence; AID 651710, 2012;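 active = every replicate showing at least 50% inhibition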
RAD54 branch – inhibitors of human RAD54 branch migration, primary screen, biochemical, fluorescence, single point; 360,000 tested, 0.14% active; inhibition, % at 10.4 µM; DNA repair and recombination protein RAD54-like (Homo sapiens), Q92698; RAD54 Holliday junction branch migration, FAM/BHQ fluorescence; AID 602329, 2012;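 active = mean normalized replicate activity at least 40 and at least half of replicates scoring 40 or more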;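 also: inhibitors cause a drop in the FAM fluorescence signal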
E-sel inducer – E-selectin induction in HUVECs, primary screen, imaging, HUVEC, immunofluorescence imaging, single point | 260,000 tested, 0.37% active | activation, % at 7.58 µM | normalized: neutral wells 0, TNF-alpha wells 100 | AID 686992, 2013;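 active = mean E-selectin-positive cell signal at least 10% of the positive control, reached in at least 60% of replicates, without over 20% cell loss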
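System: HUVEC / Compound: single concentration / Signal: immunofluorescence imaging / Read-out: percent E-selectin-positive cells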
XiGFP reactiv – activators of inactive X chromosome reactivation, primary screen, imaging, XiGFP fibroblasts, GFP high-content imaging, set 2 | XiGFP mouse fibroblasts, % GFP-positive cells imaging, 3 d; cells co-treated with 5-aza-dC sensitizer; scaled so ellipticine positive control = 100% | AID 743238, 2013 | activation, % at 7.58 µM | 360,000 tested, 0.055% active;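 active = mean normalized replicate activation at least 10% and every replicate at or above 10%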
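Assay system – SV40-immortalized XiGFP fibroblast cells, line 68-5-11 · Buffer or medium – DMEM supplemented with 5-aza-dC as sensitizing agent · Dosing – one concentration, pinned · Benchmarks – positive control ellipticine, 6 µM final · Times – 3 days compound exposure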
Each line names hits and unclear results; the compound was inactive in the other large screens. In the library only some 0.73% were active in any assay of this set; here they are far more common.

By UniProt entry, the sequences of proteins in these tests, tags left out.
DNA repair protein RAD52 homolog (Homo sapiens), P43351, UniProt P43351, whole entry, looked up: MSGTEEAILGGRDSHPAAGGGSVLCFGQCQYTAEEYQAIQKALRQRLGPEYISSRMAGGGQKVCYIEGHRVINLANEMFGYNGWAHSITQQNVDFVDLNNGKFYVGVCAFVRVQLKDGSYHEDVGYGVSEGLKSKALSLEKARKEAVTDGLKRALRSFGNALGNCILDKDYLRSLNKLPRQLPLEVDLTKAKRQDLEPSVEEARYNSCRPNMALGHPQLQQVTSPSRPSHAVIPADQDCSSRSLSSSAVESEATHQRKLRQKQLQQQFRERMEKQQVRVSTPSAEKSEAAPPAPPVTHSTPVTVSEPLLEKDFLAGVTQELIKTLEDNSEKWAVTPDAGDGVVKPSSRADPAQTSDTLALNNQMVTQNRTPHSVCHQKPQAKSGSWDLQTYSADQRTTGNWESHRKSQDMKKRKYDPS
DNA repair and recombination protein RAD54-like (Homo sapiens), Q92698, UniProt Q92698, whole entry, looked up: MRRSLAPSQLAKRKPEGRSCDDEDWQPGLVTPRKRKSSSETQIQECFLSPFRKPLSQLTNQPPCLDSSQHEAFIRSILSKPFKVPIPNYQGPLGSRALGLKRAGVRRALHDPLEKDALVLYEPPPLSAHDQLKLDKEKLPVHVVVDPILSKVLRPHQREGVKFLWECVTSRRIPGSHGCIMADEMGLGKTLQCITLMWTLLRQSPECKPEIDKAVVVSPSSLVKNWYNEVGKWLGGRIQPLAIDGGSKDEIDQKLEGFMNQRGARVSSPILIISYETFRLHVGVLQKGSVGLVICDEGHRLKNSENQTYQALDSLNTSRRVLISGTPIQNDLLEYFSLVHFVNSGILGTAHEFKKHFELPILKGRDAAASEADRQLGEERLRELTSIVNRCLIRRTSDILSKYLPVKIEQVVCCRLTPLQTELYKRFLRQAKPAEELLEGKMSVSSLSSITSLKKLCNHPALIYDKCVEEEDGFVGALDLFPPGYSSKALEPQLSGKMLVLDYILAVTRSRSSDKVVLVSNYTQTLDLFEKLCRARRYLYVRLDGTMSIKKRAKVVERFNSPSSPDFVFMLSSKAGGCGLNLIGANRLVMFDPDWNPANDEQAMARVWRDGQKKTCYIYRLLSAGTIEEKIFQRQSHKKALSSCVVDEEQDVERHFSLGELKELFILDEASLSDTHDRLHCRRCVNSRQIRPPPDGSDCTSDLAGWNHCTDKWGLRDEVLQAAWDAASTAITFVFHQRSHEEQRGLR

Cc1cc(C(=O)N/N=C/C=C/c2ccc(Br)cc2)n[nH]1	none
CN(C)C=Nc1ncc2c3ccccc3n(CCN(C)C)c2c1C#N	RAD54 branch 88 (no result: RAD52 inh, E-sel inducer, XiGFP reactiv)
C[C@@H]1CN([C@@H](C)CO)C(=O)Cc2cc(NC(=O)Nc3ccc(F)cc3)ccc2O[C@H]1CN(C)Cc1ccc(-c2ccccc2)cc1	none
CN1C(=O)c2cc(NC(=O)Nc3ccc(Cl)cc3)ccc2OC[C@@H]2O[C@@H](CC(=O)NCCN3CCCCC3)CC[C@@H]21	RAD52 inh 57 (no result: Yeast UUG start)
CN1C(=O)c2cc(NS(C)(=O)=O)ccc2OC[C@@H]2O[C@H](CC(=O)NCc3ccc(-c4ccccc4)cc3)CC[C@@H]21	E-sel inducer 65 (no result: Yeast UUG start)
C[C@H](NC(=O)C[C@H]1CC[C@H]2[C@H](COc3ccc(NS(=O)(=O)c4ccc(Cl)cc4)cc3C(=O)N2C)O1)c1ccccc1	E-sel inducer 128 (no result: Yeast UUG start)
CN1C(=O)c2cc(NC(=O)Nc3ccc(Cl)cc3)ccc2OC[C@H]2O[C@H](CC(=O)NCCN3CCCCC3)CC[C@@H]21	none (no result: Yeast UUG start)
CN1C(=O)c2cc(NS(C)(=O)=O)ccc2OC[C@@H]2O[C@H](CC(=O)NCc3ccc(-c4ccccc4)cc3)CC[C@H]21	none (no result: Yeast UUG start)
CC(=O)N(C)C[C@@H]1Oc2cc(C#Cc3ccc(F)cc3)ccc2S(=O)(=O)N([C@H](C)CO)C[C@H]1C	none (no result: Yeast UUG start)
CC[C@@H]1CC=CC[C@@H](C)Oc2ccccc2C(=O)N(C)[C@H](C(C)C)C(=O)N1 (mixture of isomers)	none (no result: Yeast UUG start, RAD52 inh, RAD54 branch, E-sel inducer)
COC(=O)C[C@@H]1CC[C@@H]2[C@@H](COc3ccc(NC(=O)Nc4ccccc4C)cc3C(=O)N2C)O1	none
C[C@@H]1CCCCO[C@@H](CN(C)C(=O)C2CCCCC2)[C@H](C)CN([C@@H](C)CO)C(=O)c2cc(N(C)C)ccc2O1	none
COCC(=O)NC[C@H]1N[C@H](CO)[C@@H]1c1ccc(-c2ccccc2F)cc1	none
CC(=O)N1CCCCN2[C@H](CO)[C@@H](c3ccc(C#Cc4ccccc4F)cc3)[C@H]2C1	none
CN1CCCCN2[C@@H](CO)[C@@H](c3ccc(C#Cc4ccccc4F)cc3)[C@@H]2C1	RAD52 inh 71
CN1CCCCN2[C@H](CO)[C@@H](c3ccc(C#Cc4ccccc4F)cc3)[C@@H]2C1	RAD52 inh 69
COc1ccccc1P(=O)(Cc1ccccc1[N+](=O)[O-])c1ccccc1 (stereo unspecified)	E-sel inducer 59 (no result: Yeast UUG start, RAD54 branch)
C[C@@H]1CN([C@H](C)CO)C(=O)c2cccc(NC(=O)c3ccncc3)c2O[C@H]1CN(C)C(=O)NC1CCCCC1	none (no result: E-sel inducer)
C[C@H]1CN([C@@H](C)CO)C(=O)c2cccc(NS(C)(=O)=O)c2O[C@@H]1CN(C)Cc1ccc(Oc2ccccc2)cc1	E-sel inducer 32
C[C@@H]1CN([C@@H](C)CO)C(=O)c2cccc(NS(=O)(=O)c3ccc(F)cc3)c2O[C@H]1CN(C)Cc1ccc(C(=O)O)cc1	E-sel inducer 66
C[C@@H]1CN([C@H](C)CO)C(=O)c2cccc(NS(C)(=O)=O)c2O[C@@H]1CN(C)Cc1ccncc1	E-sel inducer 262
C[C@@H]1CN([C@@H](C)CO)C(=O)c2cccc(NS(C)(=O)=O)c2O[C@@H]1CN(C)Cc1ccncc1	none
C[C@H]1CN([C@@H](C)CO)C(=O)c2cccc(NS(C)(=O)=O)c2O[C@@H]1CN(C)Cc1ccncc1	E-sel inducer 204
CC(C)C(=O)Nc1ccc2c(c1)C(=O)N(C)[C@H]1CC[C@@H](CC(=O)NCC3CC3)O[C@H]1CO2	none
C[C@@H]1CN([C@H](C)CO)C(=O)c2cccc(NC(=O)C3CCCCC3)c2O[C@H]1CN(C)Cc1ccc(Cl)c(Cl)c1	none
CCCN1C[C@H](C)[C@@H](OC)CN(C)C(=O)c2ccc(NC(=O)c3ccccc3F)cc2OC[C@H]1C	none (no result: Yeast UUG start)
Cn1cnc(S(=O)(=O)N[C@H]2CC[C@@H](CC(=O)NCC3CC3)O[C@H]2CO)c1	none
O=C(O)C[C@@H]1C[C@H]2c3cc(NC(=O)CC4CC4)ccc3O[C@H]2[C@@H](CO)O1	none
